Measurements taken from patent US7927622B1, “Methods of transnasal transport/immunization with highly adaptable carriers” (priority 1999, dated 2011).

Test system: anti-TT antibodies
Parameters: species or system mice
Details: mouse, in vivo

For IFN-γ, the “generation of anti-TT antibodies” value was “probably”.
